The list shows a part of the results, in another mix than the full data. Active and inactive are the calls of the source.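 How the source made its calls: active means median signal gain over dofetilide-blocked control wells reaching their mean plus 3 SD, so readout 1 at least 0; inactive means the rest.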
These molecules were tested against Voltage-gated inwardly rectifying potassium channel KCNH2 (Homo sapiens) (UniProt Q12809) (assay: hERG protection against dofetilide inhibition, confirmation, cell-based, thallium flux, duplicate retest, dofetilide IC70 (AID 1835)). Conditions: hERG cell line, FluxOR thallium flux, dofetilide-blocked; at 10 µM; stronger effect = higher value.

By UniProt entry, the sequences of proteins in these tests, tags left out.
UniProt Q12809, whole entry: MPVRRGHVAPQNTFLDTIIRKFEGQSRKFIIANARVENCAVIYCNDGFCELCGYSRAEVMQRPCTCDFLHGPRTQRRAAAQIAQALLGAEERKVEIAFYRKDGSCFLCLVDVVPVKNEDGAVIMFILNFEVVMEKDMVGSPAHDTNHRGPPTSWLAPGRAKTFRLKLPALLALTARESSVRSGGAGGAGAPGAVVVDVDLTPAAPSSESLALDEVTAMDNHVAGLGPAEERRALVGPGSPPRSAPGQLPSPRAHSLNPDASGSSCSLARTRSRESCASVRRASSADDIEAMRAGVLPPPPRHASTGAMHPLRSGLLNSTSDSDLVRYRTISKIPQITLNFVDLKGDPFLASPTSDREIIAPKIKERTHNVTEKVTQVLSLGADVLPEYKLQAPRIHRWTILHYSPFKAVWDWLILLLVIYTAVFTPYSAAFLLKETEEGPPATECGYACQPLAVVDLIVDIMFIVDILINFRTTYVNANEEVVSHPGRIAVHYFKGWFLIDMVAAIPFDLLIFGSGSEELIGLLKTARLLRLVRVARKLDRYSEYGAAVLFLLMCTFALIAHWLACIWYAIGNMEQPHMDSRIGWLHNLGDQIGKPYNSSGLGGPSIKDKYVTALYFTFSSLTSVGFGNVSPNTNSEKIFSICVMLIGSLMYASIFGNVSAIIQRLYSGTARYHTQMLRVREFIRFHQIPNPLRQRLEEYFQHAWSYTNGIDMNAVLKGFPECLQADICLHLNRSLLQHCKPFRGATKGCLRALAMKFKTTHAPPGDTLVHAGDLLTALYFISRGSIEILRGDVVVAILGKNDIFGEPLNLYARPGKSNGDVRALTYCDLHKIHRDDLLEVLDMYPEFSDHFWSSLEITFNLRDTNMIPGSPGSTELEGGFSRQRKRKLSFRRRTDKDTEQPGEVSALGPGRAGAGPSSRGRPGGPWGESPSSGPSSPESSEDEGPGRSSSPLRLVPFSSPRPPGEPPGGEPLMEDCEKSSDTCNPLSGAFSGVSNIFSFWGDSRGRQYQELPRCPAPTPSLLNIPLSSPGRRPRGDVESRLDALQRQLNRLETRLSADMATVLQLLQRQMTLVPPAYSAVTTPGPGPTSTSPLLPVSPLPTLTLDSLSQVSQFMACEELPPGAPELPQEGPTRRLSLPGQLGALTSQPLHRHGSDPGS

Row | SMILES | activity increase over dofetilide control, less the hit threshold
1 | CCOC(=O)N1CCC(Nc2ccc(OC)cc2)CC1 | inactive: -1%

Source: PubChem BioAssay AID1835 (Johns Hopkins Ion Channel Center, 2009)
